The chains behind the UniProt entries cited, without tags or fusion partners. Where a name states a change or a piece, a line headed by the entry shows the natural chain unless it says otherwise. Residues count along the entry.
UniProt P06213, 1005-1310 limits assumed: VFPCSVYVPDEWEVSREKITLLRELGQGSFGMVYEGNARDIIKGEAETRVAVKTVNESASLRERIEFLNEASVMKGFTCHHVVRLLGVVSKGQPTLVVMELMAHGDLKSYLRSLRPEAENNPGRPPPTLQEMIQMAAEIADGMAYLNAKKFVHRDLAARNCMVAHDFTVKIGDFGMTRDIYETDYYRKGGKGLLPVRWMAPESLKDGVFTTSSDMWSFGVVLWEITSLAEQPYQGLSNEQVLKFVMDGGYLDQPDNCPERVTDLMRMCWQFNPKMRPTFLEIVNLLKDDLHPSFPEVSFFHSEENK
UniProt Q8N4C8: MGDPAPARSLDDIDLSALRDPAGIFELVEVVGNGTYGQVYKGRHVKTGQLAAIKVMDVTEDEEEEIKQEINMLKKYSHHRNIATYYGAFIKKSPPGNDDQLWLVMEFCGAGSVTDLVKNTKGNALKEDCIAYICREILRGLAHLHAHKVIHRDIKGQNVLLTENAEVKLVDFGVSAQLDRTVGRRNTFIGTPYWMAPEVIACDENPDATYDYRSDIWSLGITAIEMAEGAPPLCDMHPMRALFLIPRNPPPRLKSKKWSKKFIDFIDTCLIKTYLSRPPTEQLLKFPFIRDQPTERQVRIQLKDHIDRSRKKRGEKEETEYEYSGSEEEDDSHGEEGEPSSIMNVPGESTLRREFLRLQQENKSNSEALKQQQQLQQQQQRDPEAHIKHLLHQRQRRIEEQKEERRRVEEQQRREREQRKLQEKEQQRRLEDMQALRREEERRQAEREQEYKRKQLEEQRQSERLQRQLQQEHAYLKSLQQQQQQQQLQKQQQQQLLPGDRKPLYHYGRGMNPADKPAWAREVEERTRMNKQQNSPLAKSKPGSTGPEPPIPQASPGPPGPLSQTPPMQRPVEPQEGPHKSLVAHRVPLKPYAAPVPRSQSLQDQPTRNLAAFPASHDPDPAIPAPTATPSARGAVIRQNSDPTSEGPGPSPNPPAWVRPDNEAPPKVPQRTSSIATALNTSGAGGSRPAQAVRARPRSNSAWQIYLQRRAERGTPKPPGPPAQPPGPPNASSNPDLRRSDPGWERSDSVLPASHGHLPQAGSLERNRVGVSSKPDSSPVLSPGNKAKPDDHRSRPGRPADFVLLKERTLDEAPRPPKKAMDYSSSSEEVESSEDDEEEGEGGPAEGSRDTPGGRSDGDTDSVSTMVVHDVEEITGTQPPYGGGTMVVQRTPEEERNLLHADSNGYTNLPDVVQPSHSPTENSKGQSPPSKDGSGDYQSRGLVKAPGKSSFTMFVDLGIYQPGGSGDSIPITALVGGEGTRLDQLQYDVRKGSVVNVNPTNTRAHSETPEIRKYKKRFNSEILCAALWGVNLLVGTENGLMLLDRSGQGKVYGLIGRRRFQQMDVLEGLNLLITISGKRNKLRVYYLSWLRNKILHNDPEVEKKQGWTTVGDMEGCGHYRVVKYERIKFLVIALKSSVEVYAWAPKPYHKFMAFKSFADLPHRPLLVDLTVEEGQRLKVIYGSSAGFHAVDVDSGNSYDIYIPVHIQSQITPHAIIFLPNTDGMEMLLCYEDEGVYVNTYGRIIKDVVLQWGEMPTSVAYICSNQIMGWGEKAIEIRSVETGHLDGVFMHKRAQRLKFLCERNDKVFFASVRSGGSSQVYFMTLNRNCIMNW
UniProt Q15418, whole entry: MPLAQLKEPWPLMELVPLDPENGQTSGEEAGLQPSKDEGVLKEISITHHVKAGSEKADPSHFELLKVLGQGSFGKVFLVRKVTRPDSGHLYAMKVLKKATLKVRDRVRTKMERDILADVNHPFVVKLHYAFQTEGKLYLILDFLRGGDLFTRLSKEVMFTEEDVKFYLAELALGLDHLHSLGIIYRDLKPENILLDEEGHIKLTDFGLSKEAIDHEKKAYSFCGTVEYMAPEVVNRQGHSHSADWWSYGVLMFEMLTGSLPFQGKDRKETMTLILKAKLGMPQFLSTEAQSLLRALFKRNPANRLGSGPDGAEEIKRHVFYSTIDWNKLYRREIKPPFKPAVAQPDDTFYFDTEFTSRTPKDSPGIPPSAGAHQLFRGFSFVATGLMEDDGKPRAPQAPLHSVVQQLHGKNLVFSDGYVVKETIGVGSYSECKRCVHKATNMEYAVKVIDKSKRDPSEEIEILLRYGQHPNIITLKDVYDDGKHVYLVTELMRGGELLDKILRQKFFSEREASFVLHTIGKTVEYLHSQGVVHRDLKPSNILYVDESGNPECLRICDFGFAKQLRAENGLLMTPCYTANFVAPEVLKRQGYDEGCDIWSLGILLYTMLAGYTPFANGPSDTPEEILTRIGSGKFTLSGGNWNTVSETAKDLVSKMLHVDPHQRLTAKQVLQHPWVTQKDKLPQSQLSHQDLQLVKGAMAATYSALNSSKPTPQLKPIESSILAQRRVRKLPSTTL
UniProt P57059: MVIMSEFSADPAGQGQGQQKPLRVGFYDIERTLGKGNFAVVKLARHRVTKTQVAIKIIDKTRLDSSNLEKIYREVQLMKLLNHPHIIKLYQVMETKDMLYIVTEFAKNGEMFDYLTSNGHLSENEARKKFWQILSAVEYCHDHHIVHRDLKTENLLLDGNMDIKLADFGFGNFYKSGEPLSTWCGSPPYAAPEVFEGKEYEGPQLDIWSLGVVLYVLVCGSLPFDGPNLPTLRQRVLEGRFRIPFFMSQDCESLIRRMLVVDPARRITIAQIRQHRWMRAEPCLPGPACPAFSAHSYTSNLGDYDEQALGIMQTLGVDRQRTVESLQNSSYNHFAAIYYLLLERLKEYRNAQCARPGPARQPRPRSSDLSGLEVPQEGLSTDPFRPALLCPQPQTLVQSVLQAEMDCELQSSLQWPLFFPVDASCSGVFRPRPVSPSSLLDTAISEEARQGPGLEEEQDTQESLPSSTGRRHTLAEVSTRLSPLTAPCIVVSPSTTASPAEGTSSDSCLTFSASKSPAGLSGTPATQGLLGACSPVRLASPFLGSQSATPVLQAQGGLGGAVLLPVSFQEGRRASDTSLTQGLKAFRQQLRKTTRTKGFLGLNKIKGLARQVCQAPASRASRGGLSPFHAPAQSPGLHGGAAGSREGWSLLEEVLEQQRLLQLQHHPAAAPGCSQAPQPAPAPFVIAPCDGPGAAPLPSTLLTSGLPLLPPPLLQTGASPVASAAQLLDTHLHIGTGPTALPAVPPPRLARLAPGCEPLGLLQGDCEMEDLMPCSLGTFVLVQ

According to patent US10562947B2, “Compositions and methods for preventing or treating diseases, conditions or processes characterized by aberrant fibroblast proliferation and extracellular matrix deposition” (MOERAE MATRIX, INC., priority 2011, dated 2020):

How the values were obtained:
Experiment in all cases: Kinase Profiling Assay
Type in all cases: biochemical
Conditions in all cases: 100 μM peptide
BrSK2(h) = biological target: T1, BrSK2(h) (Homo sapiens, UniProt Q8IWQ3)
T1 sequence (Q8IWQ3 1-736): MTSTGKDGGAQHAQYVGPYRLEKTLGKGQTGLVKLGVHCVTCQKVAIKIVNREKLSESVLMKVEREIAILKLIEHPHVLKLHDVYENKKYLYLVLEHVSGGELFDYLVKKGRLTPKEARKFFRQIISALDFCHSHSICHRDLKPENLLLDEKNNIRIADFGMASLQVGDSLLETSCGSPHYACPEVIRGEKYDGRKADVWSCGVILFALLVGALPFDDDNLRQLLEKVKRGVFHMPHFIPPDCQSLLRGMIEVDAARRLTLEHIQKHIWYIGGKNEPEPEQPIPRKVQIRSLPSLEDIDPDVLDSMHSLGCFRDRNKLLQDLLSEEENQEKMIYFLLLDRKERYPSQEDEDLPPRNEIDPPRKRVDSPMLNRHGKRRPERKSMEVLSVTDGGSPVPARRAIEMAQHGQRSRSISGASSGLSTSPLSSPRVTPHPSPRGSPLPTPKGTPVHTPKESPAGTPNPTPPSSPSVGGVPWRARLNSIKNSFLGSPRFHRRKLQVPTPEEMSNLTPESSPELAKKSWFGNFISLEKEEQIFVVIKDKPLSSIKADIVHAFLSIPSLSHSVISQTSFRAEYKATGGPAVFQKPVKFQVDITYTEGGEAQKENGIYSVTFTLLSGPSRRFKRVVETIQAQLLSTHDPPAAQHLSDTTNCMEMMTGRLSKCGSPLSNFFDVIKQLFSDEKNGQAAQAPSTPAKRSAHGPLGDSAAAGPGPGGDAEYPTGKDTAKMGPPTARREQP
In short: (§1)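 Off-target screen of MK2 peptide inhibitors, 266 human kinases, n = 2 per activity measurement.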

CDK2/cyclinA(h) = CDK2/cyclinA(h) (Homo sapiens, UniProt P24941)
In short: as §1

DDR2(h) = biological target: T2, DDR2(h) (Homo sapiens, UniProt Q16832)
T2 sequence (Q16832 22-855): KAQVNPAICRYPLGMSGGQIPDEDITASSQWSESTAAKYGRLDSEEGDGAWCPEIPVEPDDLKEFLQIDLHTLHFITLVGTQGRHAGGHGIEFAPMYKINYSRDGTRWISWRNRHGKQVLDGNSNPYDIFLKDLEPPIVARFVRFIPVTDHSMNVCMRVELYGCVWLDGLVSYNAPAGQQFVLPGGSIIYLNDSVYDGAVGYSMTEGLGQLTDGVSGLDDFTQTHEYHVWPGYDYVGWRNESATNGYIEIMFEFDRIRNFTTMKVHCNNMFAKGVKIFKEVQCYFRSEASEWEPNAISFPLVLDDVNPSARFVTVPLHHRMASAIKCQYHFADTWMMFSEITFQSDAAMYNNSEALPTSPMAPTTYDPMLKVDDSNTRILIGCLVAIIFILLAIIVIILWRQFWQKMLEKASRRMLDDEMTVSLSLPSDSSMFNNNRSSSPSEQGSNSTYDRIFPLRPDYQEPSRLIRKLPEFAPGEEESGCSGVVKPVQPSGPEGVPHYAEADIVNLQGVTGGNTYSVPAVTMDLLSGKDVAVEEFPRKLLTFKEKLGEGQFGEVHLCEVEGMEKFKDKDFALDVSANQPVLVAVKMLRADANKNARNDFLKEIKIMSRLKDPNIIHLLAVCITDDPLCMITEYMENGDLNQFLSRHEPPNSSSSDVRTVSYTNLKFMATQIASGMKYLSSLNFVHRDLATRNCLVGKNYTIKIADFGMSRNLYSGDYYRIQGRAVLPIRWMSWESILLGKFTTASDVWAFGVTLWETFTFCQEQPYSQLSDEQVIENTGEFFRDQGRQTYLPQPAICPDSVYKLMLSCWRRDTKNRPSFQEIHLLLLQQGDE
In short: as §1

IKKα(h) = biological target: T3, IKKα(h) (Homo sapiens, UniProt O15111)
T3 construct: purchased Millipore
T3 sequence (O15111 1-745): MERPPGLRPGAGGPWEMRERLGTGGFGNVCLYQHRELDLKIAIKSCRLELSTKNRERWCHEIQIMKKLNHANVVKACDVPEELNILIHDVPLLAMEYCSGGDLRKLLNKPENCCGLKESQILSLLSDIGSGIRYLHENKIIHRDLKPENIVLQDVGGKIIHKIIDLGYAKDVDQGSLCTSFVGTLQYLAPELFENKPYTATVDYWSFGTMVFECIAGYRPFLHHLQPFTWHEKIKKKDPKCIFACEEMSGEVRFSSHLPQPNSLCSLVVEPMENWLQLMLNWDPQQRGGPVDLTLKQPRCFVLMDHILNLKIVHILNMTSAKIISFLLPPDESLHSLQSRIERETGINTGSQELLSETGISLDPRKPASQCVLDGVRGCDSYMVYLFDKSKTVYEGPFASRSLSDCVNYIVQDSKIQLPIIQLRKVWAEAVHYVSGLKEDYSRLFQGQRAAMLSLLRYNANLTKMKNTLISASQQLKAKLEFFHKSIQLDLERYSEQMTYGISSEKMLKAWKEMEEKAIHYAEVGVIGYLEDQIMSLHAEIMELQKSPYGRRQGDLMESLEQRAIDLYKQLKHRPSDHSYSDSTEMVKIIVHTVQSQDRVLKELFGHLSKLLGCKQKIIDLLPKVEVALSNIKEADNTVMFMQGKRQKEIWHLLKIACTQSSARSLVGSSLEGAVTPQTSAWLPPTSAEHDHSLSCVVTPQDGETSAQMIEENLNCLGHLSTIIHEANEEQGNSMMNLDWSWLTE
In short: as §1

IR(h), activated = biological target: T4, IR(h), activated (Homo sapiens, UniProt P06213)
T4 construct: purchased Millipore
In short: as §1

MEK1(h) = MEK1(h) (Homo sapiens, UniProt Q02750)
In short: as §1

MINK(h) = MINK(h) (Homo sapiens, UniProt Q8N4C8)
In short: as §1

Rsk1(h) = biological target: T5, Rsk1(h) (Homo sapiens, UniProt Q15418)
T5 construct: purchased Millipore (IC50 Profiler Express service)
In short: as §1

SIK(h) = SIK(h) (Homo sapiens, UniProt P57059)
In short: as §1

c-RAF(h) = c-RAF(h) (Homo sapiens, UniProt P04049)
In short: as §1

cKit(V654A)(h) = cKit(V654A)(h) (Homo sapiens, UniProt P10721, V654A)
In short: as §1

## YARAAARQARAKALNRQLGVA (Mammalian) [MMI-0200]
BrSK2(h)
  BrSK2(h) % activity: 102%
CDK2/cyclinA(h)
  CDK2/cyclinA(h) % activity: 114%
DDR2(h)
  DDR2(h) % activity: 104%
IKKα(h)
  IKKα(h) % activity: 104%
IR(h), activated
  IR(h), activated % activity: 105%
MEK1(h)
  MEK1(h) % activity: 116%
MINK(h)
  MINK(h) % activity: 103%
Rsk1(h)
  Rsk1(h) % activity: 102%
SIK(h)
  SIK(h) % activity: 102%
c-RAF(h)
  c-RAF(h) % activity: 115%
cKit(V654A)(h)
  cKit(V654A)(h) % activity: 113%
